{
  "sequences": {"note": "Protein sequences, listed by entry. Tags and fused reporters are not part of them.", "UniProt P41143, whole entry": "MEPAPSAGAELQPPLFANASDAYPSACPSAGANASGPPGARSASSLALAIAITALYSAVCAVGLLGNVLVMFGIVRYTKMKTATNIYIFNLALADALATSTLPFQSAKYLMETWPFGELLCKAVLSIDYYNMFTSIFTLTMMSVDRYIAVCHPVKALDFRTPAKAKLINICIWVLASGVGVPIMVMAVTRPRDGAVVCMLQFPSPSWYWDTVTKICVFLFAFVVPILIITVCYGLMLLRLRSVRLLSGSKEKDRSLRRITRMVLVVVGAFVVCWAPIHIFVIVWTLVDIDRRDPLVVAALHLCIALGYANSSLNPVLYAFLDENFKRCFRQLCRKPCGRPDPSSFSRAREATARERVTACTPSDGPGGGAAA"},
  "source": "paper PMC10307939",
  "about": "(Pharmacology Research & Perspectives, 2023)",
  "biological_target": "human delta‐opioid receptor (Homo sapiens, UniProt P41143)",
  "assay": "Ligand‐stimulated [35S]GTPγS binding, hDOR‐CHO membranes",
  "assay_type": "biochemical",
  "conditions": "read-out: DOR E max",
  "data": [
    {"smiles": "CN1CC[C@]23c4c5ccc(O)c4O[C@H]2[C@@H](O)C=C[C@H]3[C@H]1C5", "note": "[Morphine, reference compound]", "values": [
      {"measurement": "Emax", "result": "72.6 ± 12", "unit": "%"}
    ]}
  ]
}
